We go through one compound from US20090131468A1, “Bis-(Sulfonylamino) Derivatives in Therapy 065” (AstraZeneca AB, priority 2007, published 2009).

Amino acid sequences for entries named in this document (tags omitted).
UniProt O14684, whole entry: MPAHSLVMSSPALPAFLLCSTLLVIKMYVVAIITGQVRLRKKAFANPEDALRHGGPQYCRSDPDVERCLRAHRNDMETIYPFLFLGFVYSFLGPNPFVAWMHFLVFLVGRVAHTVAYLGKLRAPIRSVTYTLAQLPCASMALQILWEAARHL

In general, IC50 refers to the concentration that inhibits the measured activity by half. Low readings indicate inhibition by little substance, high ones a need for much substance.

The target of this experiment is human mPGES-1 (Homo sapiens, UniProt O14684). Nature of the experiment: Microsomal prostaglandin E synthase biochemical assay. Particulars: microsome preparation containing human mPGES-1; PGH2 10.8 μM, GSH 2.5 mM, pH 6.8; PGE2 quantified by HTRF; average of at least n=2. On the technique in general: Time-resolved FRET reads energy transfer from a long-lived donor to a nearby acceptor.

For `Cc1nc(-c2ccc3c(c2)CCO3)sc1C(=O)NS(=O)(=O)c1ccccc1S(N)(=O)=O`, the 50% inhibitory concentration (IC50) stood at 140 nM.
